Test results reported in patent US11166981B2, “Methods and compositions for treating chlorine-gas induced lung injury” (dated 2021).

Experiments:
[1] = tested on: cisplatin-induced ototoxicity; conditions: guinea pig, even when given post insult; cited from earlier work
[2] = cited from earlier work
[3] = tested on: coronary artery calcification; conditions: hemodialysis subjects; cited from earlier work
cyanide toxicity = conditions: animal models of cyanide toxicity, cited from earlier work
biliary obstruction = conditions: rat biliary obstruction; cited from earlier work
[4] = tested on: human glial neuroinflammation; conditions: LPS-mediated, in vitro; cited from earlier work
[5] = tested on: Human bronchial epithelial cell line (16HBE); experiment: HOCl-induced injury of human bronchial epithelial cells, LDH release
[6] = cited from earlier work; remark: listed apart in the source
[7] = in vivo; cited from earlier work
[8] = tested on: heart ischemia/reperfusion injury; conditions: rat; cited from earlier work
kidney injury = conditions: rat; cited from earlier work
[9] = tested on: volume overload heart failure; conditions: mouse; cited from earlier work
acute lung injury = conditions: 0.5-2 g/kg, ip or iv, even when given post insult; cited from earlier work
[10] = tested on: global cerebral ischemia/reperfusion; conditions: mouse; cited from earlier work
[11] = tested on: paraquat model of acute lung injury; conditions: 1 g/kg, sc; cited from earlier work
chlorine gas exposure = conditions: cited from earlier work

O=S(O)(O)=S
effect on cisplatin-induced ototoxicity [1]: protective
reported LD50 ([2]; in animals): 3000 to 4000 mg/kg
reported LD50 dose ([2]; iv route): 4000 mg/kg
effect on progression of coronary artery calcification [3]: delayed the progression
improvements in survival (cyanide toxicity; doses 150-1000 mg/kg): 5-70%
effective doses (cyanide toxicity): 150 to 1000 mg/kg
effect on liver mitochondrial function (biliary obstruction): improved liver mitochondrial function
effect on survival (biliary obstruction): improved survival
effect on glial neuroinflammation [4]: attenuate LPS-mediated human glial neuroinflammation
protection of HBE cells against HOCl-induced injury ([5]; 200 μM HOCl 30 minutes, increasing concentrations, LDH release at 24 hours (FIG. 3)): dose-dependent thiosulfate protection
concentration of sodium thiosulfate giving improved survival against HOCl-mediated injury ([5]; 16HBE, 200 μM HOCl in PBS 30 minutes, then thiosulfate in DMEM+10% FCS, LDH release 24 hours after): > 10 µM
basal serum levels ([6]; endogenous, humans): 5.5 ± 1.8 µM
serum half-life ([6]; human, high i.v. dose): around 3 hours
adverse effects reported [7]: hypotension, nausea and vomiting
effect in heart ischemia/reperfusion injury [8]: protective
effect in kidney injury models (kidney injury): protective
effect in volume overload heart failure [9]: cardioprotective
effect on lung inflammation and injury (acute lung injury): decreased lung inflammation and injury
effect in global cerebral ischemia/reperfusion [10]: neuroprotective
effect on survival [11]: improved mouse survival

O=NO
effect on mortality to chlorine gas exposure (chlorine gas exposure; mouse model): effective in decreasing mortality
effect on 24-hour survival (chlorine gas exposure; single bolus im dose, as late as 60 minutes post exposure): improve 24-hour survival
